Protein sequences, listed by entry. Tags and fused reporters are not part of them.
UniProt Q16539, whole entry: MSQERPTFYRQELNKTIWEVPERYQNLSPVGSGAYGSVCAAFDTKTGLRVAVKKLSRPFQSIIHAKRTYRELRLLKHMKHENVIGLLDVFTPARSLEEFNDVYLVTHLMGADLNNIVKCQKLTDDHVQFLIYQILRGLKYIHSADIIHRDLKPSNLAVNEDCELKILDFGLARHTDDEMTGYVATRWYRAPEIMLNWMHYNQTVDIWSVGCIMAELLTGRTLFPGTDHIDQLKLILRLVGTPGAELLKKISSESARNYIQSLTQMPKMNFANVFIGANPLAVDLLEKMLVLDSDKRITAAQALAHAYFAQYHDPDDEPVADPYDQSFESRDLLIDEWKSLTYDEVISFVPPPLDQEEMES

According to patent US7582652B2, “Kinase inhibitors” (Eli Lilly and Company, priority 2004, dated 2009):

Target: p38 kinase enzyme (Homo sapiens, UniProt Q16539)
Assay: Inhibition of p38 kinase
Format: biochemical
Conditions: 33P-ATP, EGF peptide 661-681, 30° C.
Protocol: Standard Solution Preparations
The kinase buffer solution is prepared by combining 2.5 mL 1 M Tris-HCl (pH 7.5), 0.1 ml 1 M dithiothreitol, 1.0 mL 1 M magnesium chloride, and 300 μL 1% Triton X-100 and diluting to 100 mL with water. 84 mL of this kinase buffer solution is combined with 16 mL DMSO to prepare the 16% DMSO solution.
The 200 μM ATP solution is prepared by adding 102.6 μL 10 mM aqueous ATP, 25 μL ^33P-ATP, and 163.5 μL of 4 mM aqueous Epidermal Growth Factor Peptide 661-681 (Biomol, Catalog #P-121) in 5 mL kinase buffer solution.
The p38 kinase enzyme solution is prepared by dissolving 9.5 μL concentrated enzyme solution (250 ng p38 enzyme/μL kinase buffer solution) in 1536 μL kinase buffer solution. […]
10 μL of serially diluted compound is placed with a Beckmnan Multimek 96-well automated liquid handler to the assay plate. […] The plates are allowed to sit for 30 min and counted on a PE/Wallac Microbeta Trilux scintillation counter for ^33P-isotope.
All exemplified compounds were initially tested at 10 concentrations (20 μM−1 nM using 1:3 serial dilutions). […] IC50 values were calculated (IDBS ActivityBase software) for each compound using non-linear regression.

**Q.** How did the IC50 turn out when `CC(C)(C)Cn1c(N)nc2ccc(-c3[nH]c(C(C)(C)C)nc3-c3ccc(F)cc3F)nc21` [EXAMPLE 11, 5-[2-tert-Butyl-5-(2,4-difluorophenyl)-3H-imidazol-4-yl]-3-(2,2-dimethylpropyl)-3H-imidazo[4,5-b]pyridin-2-ylamine methanesulfonate] was run?
**A.** 2.3 nM
